Laboratory results: BindingDB's records for doi:10.3109/14756366.2010.616860 (Slovak University of Technology, 2012)

Target: T1, Serine protease 1 (Bos taurus, UniProt P00760)
T1 sequence (P00760 whole entry): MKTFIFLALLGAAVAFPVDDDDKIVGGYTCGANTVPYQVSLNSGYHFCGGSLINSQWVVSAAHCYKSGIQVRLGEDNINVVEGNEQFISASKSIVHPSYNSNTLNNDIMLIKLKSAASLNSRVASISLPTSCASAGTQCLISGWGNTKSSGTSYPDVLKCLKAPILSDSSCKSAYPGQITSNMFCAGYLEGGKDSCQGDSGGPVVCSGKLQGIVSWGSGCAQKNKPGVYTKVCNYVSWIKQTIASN
Assay: Enzyme Assay
Details: pH 8
Procedure: Data scanning time was set to the 1st and 61st minute after the reaction start. Rutin, esculin, phloridzin and their esters were initially solubilized at a concentration of 10 mM in dimethyl sulphoxide (DMSO) and subsequently incorporated in the reaction mixture to final concentrations in the range of 1-50 μM. Samples were run in triplicate in 96-well plates by MRX microplate reader. Each experiment was performed in triplicate.

Structure (SMILES): O=c1c(O)c(-c2ccc(O)c(O)c2)oc2cc(O)cc(O)c12 [2-(3,4-dihydroxyphenyl)-3,5,7-trihydroxy-chromone;hydrate]
- IC50: 10 µM
